Data taken from BindingDB's records for doi:10.1016/0006-8993(87)90040-0 (St, Marianna University School of Medicine, 1987).
pKi: −log10 of the molar value.

Sequences of proteins named here, by UniProt entry; tags and fusion partners are left off.
UniProt P61169, whole entry: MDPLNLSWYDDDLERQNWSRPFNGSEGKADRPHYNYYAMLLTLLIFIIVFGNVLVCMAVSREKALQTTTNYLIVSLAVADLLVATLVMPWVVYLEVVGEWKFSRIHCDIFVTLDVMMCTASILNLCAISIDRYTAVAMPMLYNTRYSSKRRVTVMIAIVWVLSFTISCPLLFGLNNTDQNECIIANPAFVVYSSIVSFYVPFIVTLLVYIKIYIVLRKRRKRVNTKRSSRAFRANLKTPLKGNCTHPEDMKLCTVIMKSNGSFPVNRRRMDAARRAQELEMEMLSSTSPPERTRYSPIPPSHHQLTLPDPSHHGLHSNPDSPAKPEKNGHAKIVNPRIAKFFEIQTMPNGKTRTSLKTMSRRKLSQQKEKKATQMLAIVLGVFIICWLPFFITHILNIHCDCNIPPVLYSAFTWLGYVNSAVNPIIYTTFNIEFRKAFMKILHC

Target: D(2) dopamine receptor (Rattus norvegicus, UniProt P61169)

pKi: 8.08
SMILES: OCCN1CCN(CC/C=C2/c3ccccc3Sc3ccc(C(F)(F)F)cc32)CC1 [(cis) 2-{4-[3-(2-Trifluoromethyl-thioxanthen-9-ylidene)-propyl]-piperazin-1-yl}-ethanol(Flupentixol)]
